From ChEMBL document CHEMBL1145122, “Structure-based design of novel guanidine/benzamidine mimics: potent and orally bioavailable factor Xa inhibitors as novel anticoagulants” (J Med Chem, 2003)

Protein sequences, listed by entry. Tags and fused reporters are not part of them. Residues count along the entry.
UniProt P00742, 41-179 limits assumed: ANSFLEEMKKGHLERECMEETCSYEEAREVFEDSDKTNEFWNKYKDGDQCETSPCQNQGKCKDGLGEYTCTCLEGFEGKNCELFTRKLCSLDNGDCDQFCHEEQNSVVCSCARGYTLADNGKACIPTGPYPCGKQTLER
UniProt P00742, 235-488 limits assumed: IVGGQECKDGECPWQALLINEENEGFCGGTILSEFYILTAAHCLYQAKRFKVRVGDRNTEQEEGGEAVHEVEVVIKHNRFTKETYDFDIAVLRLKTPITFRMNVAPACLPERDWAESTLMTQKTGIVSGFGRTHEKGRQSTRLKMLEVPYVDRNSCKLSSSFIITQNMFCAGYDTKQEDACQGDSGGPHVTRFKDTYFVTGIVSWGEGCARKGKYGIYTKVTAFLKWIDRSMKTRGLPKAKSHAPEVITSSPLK

Target: Coagulation factor X (Homo sapiens, UniProt P00742)
Assay: Inhibitory activity against Coagulation factor X (FXa)

Ki: 21 µM
SMILES: Cc1cc(C(=O)Nc2ccc(-c3ccccc3S(N)(=O)=O)cc2)n(C2CCCNC2)n1 (stereo unspecified)
